The record followed here is patent US20240293430A1, “WITHAFERIN A AND IMMUNE CHECKPOINT BLOCKER COMBINATION THERAPIES” (University of South Florida, priority 2023, published 2024).

For this test, the system named is WFA-induced PD-L1 upregulation in NSCLC cells. Briefly: Pharmacologic inhibitors added to WFA, PD-L1 by flow cytometry. The format is cell-based, mouse (LLC), human (H1650. Particulars: WFA + inhibitor, 24 h; STATTIC: LLC, H1650; PX-478: LLC; brusatol: LLC, H1650, A549. On the technique in general: Flow cytometry measures light scatter and fluorescence of single cells or particles in a stream.

As to `N[C@@H](Cc1ccc([N+]([O-])(CCCl)CCCl)cc1)C(=O)O`, the “effect on WFA-induced PD-L1 upregulation” value is listed as “neither STATTIC nor PX-478 were able to reverse”.
